# Assay results from PubChem BioAssay AID463115 (University of Pittsburgh Molecular Library Screening Center, 2010).
# Sequences of proteins named here, by UniProt entry; tags and fusion partners are left off. Residues count along the entry.
# UniProt P09958, 108-714 limits assumed: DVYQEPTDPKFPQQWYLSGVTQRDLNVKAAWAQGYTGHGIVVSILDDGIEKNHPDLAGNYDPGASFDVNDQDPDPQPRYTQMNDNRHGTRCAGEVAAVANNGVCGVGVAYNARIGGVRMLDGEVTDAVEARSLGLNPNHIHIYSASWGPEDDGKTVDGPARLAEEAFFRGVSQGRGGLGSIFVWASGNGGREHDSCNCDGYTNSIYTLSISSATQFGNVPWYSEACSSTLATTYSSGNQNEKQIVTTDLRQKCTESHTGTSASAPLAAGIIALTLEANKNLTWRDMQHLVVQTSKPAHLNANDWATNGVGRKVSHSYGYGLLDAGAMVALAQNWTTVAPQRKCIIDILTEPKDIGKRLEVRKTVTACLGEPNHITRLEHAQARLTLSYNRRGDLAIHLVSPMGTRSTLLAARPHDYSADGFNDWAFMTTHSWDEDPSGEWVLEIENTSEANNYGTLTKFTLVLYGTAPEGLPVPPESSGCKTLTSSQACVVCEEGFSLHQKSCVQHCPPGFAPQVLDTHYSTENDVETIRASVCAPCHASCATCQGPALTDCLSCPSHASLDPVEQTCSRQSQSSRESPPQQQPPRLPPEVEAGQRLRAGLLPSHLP
# This is a selection; strong and weak results do not stand in their true shares. Some structures show a salt or complex split into parts, the way the source records it. Activity calls are given as the source filed them. No stated cut-off is given here; in the data, active means inhibition above about 25%; inactive means the rest.
# Target: Furin (Homo sapiens) (UniProt P09958)
# Test: human furin inhibitors, primary screen, biochemical, fluorescence intensity (AID 463115)
# Conditions: purified furin, fluorogenic substrate cleavage, stronger effect = higher value; at 30 µM unless noted
row,Compound,inhibition
1,CCc1ccc(OP(C)(=O)O)cc1,inactive: -1.03% [at 20 µM]
2,COc1ccccc1OP(C)(=O)Nc1ccc(C)cc1C (configuration not stated),inactive: -15.1% [at 20 µM]
3,CP(=O)(Nc1ccccn1)Oc1ccccc1 (configuration not stated),inactive: -16.4% [at 20 µM]
4,O=[N+]([O-])c1cc([N+](=O)[O-])c(Nc2ccccn2)c([N+](=O)[O-])c1,inactive: -19.9%
5,Cc1c(NP(C)(=O)Oc2ccc(C(C)C)cc2)c(=O)n(-c2ccccc2)n1C (configuration not stated),inactive: -16.9% [at 20 µM]
6,CN(C)CCOC(=O)C(O)(c1ccccc1)C1CCCC1 (configuration not stated),inactive: -7.23% [at 20 µM]
7,COc1ccc(OP(C)(=O)Nc2ccccn2)cc1 (configuration not stated),inactive: -12% [at 20 µM]
8,COc1ccccc1OP(C)(=O)Nc1ccc(Br)cc1 (configuration not stated),inactive: -8.89%
9,CP(=O)(OCCOc1ccccc1)OCCOc1ccccc1,inactive: -28%
10,CP(=O)(Nc1ccc(Cl)cc1Cl)Oc1ccccc1 (configuration not stated),inactive: -29.5%
11,Cc1nc2ccc3ccccc3c2o1.O=[N+]([O-])c1cc([N+](=O)[O-])c(O)c([N+](=O)[O-])c1,inactive: -13.8%
12,COc1ccccc1OP(C)(=O)Nc1ccc(C)c(C)c1 (configuration not stated),inactive: -17%
13,Cc1cc(C)cc(OP(C)(=O)Nc2cccc(C(F)(F)F)c2)c1 (configuration not stated),inactive: -14.7%
14,CP(=O)(OC12CC3CC(CC(C3)C1)C2)OC12CC3CC(CC(C3)C1)C2,inactive: -13.8% [at 20 µM]
15,CCOC(=O)c1ccc(NP(C)(=O)Oc2ccc(Cl)cc2)cc1 (configuration not stated),inactive: -15.3%
16,CN(C)C(=O)c1c([N+](=O)[O-])cc([N+](=O)[O-])cc1[N+](=O)[O-],inactive: -44.9%
17,CP(=O)(Nc1ccc(Cl)cc1)Oc1ccc(F)cc1 (configuration not stated),inactive: -6.78% [at 20 µM]
18,CC(C)(C)c1ccc(OP(C)(=O)O)cc1,inactive: -17.8% [at 20 µM]
19,COc1ccccc1OP(C)(=O)Nc1ccccc1Br (configuration not stated),inactive: -25.5%

row,Compound,inhibition
1,CCc1ccc(OP(C)(=O)Nc2cccnc2)cc1 (configuration not stated),inactive: -21.3%
2,CP(=O)(Oc1ccccc1)N1CCOC1=O (configuration not stated),inactive: -14.6%
3,O=C(OCCCN1CCCC1)C(O)(c1ccccc1)C1CCCCC1 (configuration not stated),inactive: -15.1%
4,COc1ccccc1OP(C)(=O)Nc1c(C)n(C)n(-c2ccccc2)c1=O (configuration not stated),inactive: -16.3%
5,COc1ccc(OP(C)(=O)Nc2ccc(Br)cc2)cc1 (configuration not stated),inactive: 2.21%
6,CCN(CC)CC(O)COC(=O)C(O)(c1ccccc1)C1CCCCC1 (configuration not stated),inactive: -20.9%
7,Cc1ccccc1NP(C)(=O)Nc1ccccc1C,inactive: -21%
8,CP(=O)(Nc1ccc2c(c1)OCCO2)Oc1ccccc1 (configuration not stated),inactive: -22.3% [at 20 µM]
9,CCOP(C)(=S)SCC(=O)NC(C)(CC)C(=O)O (configuration not stated),inactive: -19.8%
10,CP(=O)(Nc1ccc(SC(F)(F)F)cc1)Oc1ccc(F)cc1 (configuration not stated),inactive: -10.6%
11,O=[N+]([O-])c1cc([N+](=O)[O-])c(NCC2CCS(=O)(=O)C2)c([N+](=O)[O-])c1 (configuration not stated),inactive: -17.5%
12,Cc1cc(-c2cccc3ccccc23)c(C)cn1.O=[N+]([O-])c1cc([N+](=O)[O-])c(O)c([N+](=O)[O-])c1,inactive: -1.1%
13,O=[N+]([O-])c1ccc(OP2(=O)COCCO2)cc1 (configuration not stated),inactive: -27.2%
14,COc1ccc(NP(C)(=O)Oc2ccccc2OC)cc1 (configuration not stated),inactive: -19.7%
15,CN(C)CCOC(=O)C(O)(c1ccccc1)C1CCCCC1 (configuration not stated),inactive: -5.48% [at 20 µM]
16,COc1ccc(OP(C)(=O)Nc2cccc(Br)c2)cc1 (configuration not stated),inactive: -12.6% [at 20 µM]
17,CCCCCOc1ccc(NP(C)(=O)Oc2ccc(Cl)cc2Cl)cc1 (configuration not stated),inactive: 7.15%
18,CP(=O)(Nc1ccccc1)Oc1ccc(F)cc1 (configuration not stated),inactive: -22.3% [at 20 µM]
19,CCN(CC)CCCOC(=O)C(O)(c1ccccc1)C1CCCCC1 (configuration not stated),inactive: -11.5% [at 20 µM]

row,Compound,inhibition
1,COc1ccc(OP(C)(=O)Nc2ccc(SC(F)(F)F)cc2)cc1 (configuration not stated),inactive: -9.74%
2,CCOC(=O)c1ccc(NP(C)(=O)Oc2ccc(F)cc2)cc1 (configuration not stated),inactive: 1.26%
3,COc1ccc2c(c1O)-c1c(O)c(OC)cc3c1[C@H](C2)[N+](C)(C)CC3.O=[N+]([O-])c1cc([N+](=O)[O-])c([O-])c([N+](=O)[O-])c1[O-],inactive: -17.8%
4,O=C(OCCN1CCN(CCOCc2ccccc2)CC1)C(O)(c1ccccc1)c1ccccc1,inactive: -14.1%
5,O=C(OC1CN2CCC1CC2)c1ccc([N+](=O)[O-])cc1 (configuration not stated),inactive: -16.2%
6,CC(C)c1ccc(OP(C)(=O)Nc2ccc(SC(F)(F)F)cc2)cc1 (configuration not stated),inactive: 6.09%
7,CP(=O)(Nc1ccccc1F)Oc1ccccc1 (configuration not stated),inactive: -30%
8,CP(=O)(Nc1cccc(Br)c1)Oc1ccccc1 (configuration not stated),inactive: -23.6%
9,Cc1cc(C)cc(OP(C)(=O)Nc2ccccn2)c1 (configuration not stated),inactive: -22.7% [at 20 µM]
10,Cc1ccc(C)c(NP(C)(=O)Oc2ccccc2)c1 (configuration not stated),inactive: -12.2% [at 20 µM]
11,Cc1cc(C)cc(OP(C)(=O)Nc2ccc(C)cc2C)c1 (configuration not stated),inactive: -24.5% [at 20 µM]
12,CCOC(=O)c1ccc(NP(C)(=O)Oc2cc(C)cc(C)c2)cc1 (configuration not stated),inactive: 1.24%
13,COc1ccccc1OP(C)(=O)Nc1cccc(Br)c1 (configuration not stated),inactive: -11.8%
14,CC1=NCCc2c1[nH]c1ccccc21.O=[N+]([O-])c1cc([N+](=O)[O-])c(O)c([N+](=O)[O-])c1,inactive: 15%
15,O=C(O)c1cccc(Nc2c([N+](=O)[O-])cc([N+](=O)[O-])cc2[N+](=O)[O-])c1,inactive: 3.12%
16,CP(=O)(Nc1ccc(SC(F)(F)F)cc1)Oc1ccccc1 (configuration not stated),inactive: -7.63%
17,CCCOc1ccc(NP(C)(=O)Oc2ccc(Cl)cc2)cc1 (configuration not stated),inactive: -1.17%
18,CN1CCCCC1COC(=O)C1(O)c2ccccc2CCc2ccccc21 (configuration not stated),inactive: -12.7%
19,COc1ccccc1OP(C)(=O)Nc1c(C)cccc1C (configuration not stated),inactive: -13.6% [at 20 µM]
